# Experimental data: patent publication US12709634B2, “Treatment of diseases related to hepatitis B virus” (priority 2019, dated 2026)
# Legend:
# [1] = tested on: PBMCs from donors who have previously resolved HBV; assay: immunogenicity of HLA-binding peptides: IFNγ ELISA on expanded PBMCs; format: cell-based, human; settings: PBMCs of HBV resolvers expanded 14 days with peptide pools, single peptide re-stimulation 48 hr at 10 μg/ml
# [2] = biological target: HLA-A*02:01 (Homo sapiens, UniProt P04439, D140Y/D185E/D98H/E176V/E277Q/G131W/G231S/I119V/I121R/I166T/I218V/L300P/L318F/N151K/N90K/P208A/P217A/Q86G/Q94H/R138H/R169H/T345S); assay: in vitro HLA-binding assay (UV-induced peptide exchange, HLA class I ELISA); settings: FIG. 3B
sequence,measurement,setting,value
"FLPSDFFPSV [Peptide C18-27, reference compound]",IFNγ production,[1],IFNγ production was detected
same,binding compared with the positive control,[2],scored even better than the positive control
